# Reference: ChEMBL document CHEMBL3856277, “Design, synthesis, and activity evaluation of selective inhibitors of anti-apoptotic Bcl-2 proteins: The effects on the selectivity of the P1 pockets in the active sites” (Bioorg Med Chem Lett, 2016)
# Protein sequences, listed by entry. Tags and fused reporters are not part of them.
# UniProt Q07820, whole entry: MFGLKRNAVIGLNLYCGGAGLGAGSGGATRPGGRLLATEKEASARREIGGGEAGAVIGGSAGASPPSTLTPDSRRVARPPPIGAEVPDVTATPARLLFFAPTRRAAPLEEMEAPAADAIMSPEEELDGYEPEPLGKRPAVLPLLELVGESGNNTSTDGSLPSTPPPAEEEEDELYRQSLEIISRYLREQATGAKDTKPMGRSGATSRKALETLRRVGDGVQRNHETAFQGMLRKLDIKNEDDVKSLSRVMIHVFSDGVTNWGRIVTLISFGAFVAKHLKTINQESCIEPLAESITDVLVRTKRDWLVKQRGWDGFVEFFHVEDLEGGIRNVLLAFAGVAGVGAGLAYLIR
# Target: Induced myeloid leukemia cell differentiation protein Mcl-1 (Homo sapiens, UniProt Q07820)
# Assay: Inhibition of 5-FAM-Bid peptide binding to MCL-1 (unknown origin) by fluorescence polarization assay
structure (smiles),measurement,value
CN(C)CC[C@H](CSc1ccccc1)Nc1ccc(S(=O)(=O)NC(=O)c2ccc(N3CCN(Cc4ccccc4-c4ccc(Cl)cc4)CC3)cc2)cc1[N+](=O)[O-] [ABT 737],Ki,> 20 µM
